Results from patent US20100021885A1, “REAGENT SETS AND GENE SIGNATURES FOR NON-GENOTOXIC HEPATOCARCINOGENICITY” (priority 2006, published 2010).

Assays:
[1] = tested on: livers from treated male Sprague-Dawley rats; details: rat, in vivo
liver of rats = details: rat, in vivo; cited from earlier work

ClC(Cl)Cl [chloroform, reference compound]
signature prediction for non-genotoxic hepatocarcinogenicity [1]: positive

Cc1cc2c(s1)Nc1ccccc1N=C2N1CCN(C)CC1 [OLANZAPINE]
Day 1 (scalar product) ([1]; male): −0.58 | Day 3 (scalar product) ([1]; male): −0.56 | Day 5 (scalar product) ([1]; male): −0.54 | Max (maximum scalar product observed over the multiple time points) ([1]; male): −0.54

C[C@]12C=CC(=O)C=C1CC[C@@H]1[C@@H]2[C@@H](O)C[C@@]2(C)[C@H]1CC[C@]2(O)C(=O)CO [PREDNISOLONE]
Class (liver of rats): NGTC
